This note sets out measurements from ChEMBL document CHEMBL3352497, “Design and optimization of novel 4-(2-fluorophenoxy)quinoline derivatives bearing a hydrazone moiety as c-Met kinase inhibitors” (Eur J Med Chem, 2014).

The species named for assay [1] is Homo sapiens. Put plainly: Selectivity index, ratio of IC50 for FLT3 (unknown origin) to IC50 for c-Met (unknown origin).
For assay [2], the species on record is Homo sapiens. Put plainly: Selectivity index, ratio of IC50 for KDR (unknown origin) to IC50 for c-Met (unknown origin).

As to `COc1cc2c(Oc3ccc(CC(=O)N/N=C/c4ccc(C(F)(F)F)cc4)cc3F)ccnc2cc1OCCCN1CCCC1`, the Ratio IC50 amounted to 210 in assay [1] and 301 in assay [2].
